Assay results from patent publication US11180487B2, “Substituted cyanoindoline derivatives as NIK inhibitors” (Janssen Pharmaceutica NV, priority 2016, dated 2021).

Protein sequences, listed by entry. Tags and fused reporters are not part of them.
UniProt Q99558, whole entry: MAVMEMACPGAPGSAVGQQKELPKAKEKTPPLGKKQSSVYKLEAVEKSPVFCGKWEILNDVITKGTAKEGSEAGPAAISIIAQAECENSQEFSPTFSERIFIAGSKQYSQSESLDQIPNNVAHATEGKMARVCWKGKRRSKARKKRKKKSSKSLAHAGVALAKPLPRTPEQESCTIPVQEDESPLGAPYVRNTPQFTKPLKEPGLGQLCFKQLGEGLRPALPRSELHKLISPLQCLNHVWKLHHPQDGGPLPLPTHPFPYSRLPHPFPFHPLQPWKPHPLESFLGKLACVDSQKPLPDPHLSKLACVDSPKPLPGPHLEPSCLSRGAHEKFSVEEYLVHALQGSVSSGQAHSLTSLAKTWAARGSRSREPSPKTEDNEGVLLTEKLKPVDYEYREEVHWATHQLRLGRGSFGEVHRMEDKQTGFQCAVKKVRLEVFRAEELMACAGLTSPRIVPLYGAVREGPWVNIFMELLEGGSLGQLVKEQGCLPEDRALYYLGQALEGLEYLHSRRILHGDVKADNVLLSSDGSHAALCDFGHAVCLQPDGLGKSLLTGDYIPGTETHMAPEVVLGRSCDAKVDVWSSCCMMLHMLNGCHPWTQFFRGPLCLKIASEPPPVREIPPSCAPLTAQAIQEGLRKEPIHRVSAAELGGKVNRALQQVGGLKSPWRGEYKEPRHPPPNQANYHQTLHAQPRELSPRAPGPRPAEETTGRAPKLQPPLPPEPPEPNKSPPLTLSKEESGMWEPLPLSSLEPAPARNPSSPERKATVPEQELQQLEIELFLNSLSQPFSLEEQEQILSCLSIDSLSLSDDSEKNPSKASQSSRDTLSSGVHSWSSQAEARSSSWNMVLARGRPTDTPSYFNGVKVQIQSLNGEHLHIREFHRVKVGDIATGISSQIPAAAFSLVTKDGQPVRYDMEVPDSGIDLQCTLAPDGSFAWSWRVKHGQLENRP

Target: recombinant human NF-kappaB-inducing kinase (NIK/MAP3K14) (Homo sapiens, UniProt Q99558)
Test: Inhibition of auto-phosphorylation of recombinant human NIK/MAP3K14 activity (AlphaScreen), Biological Assay A
Settings: read-out: Auto-phosphorylation inhibition of NIK (IC50 (nM)), averaged values over all measurements on all batches
Protocol: Inhibition of Auto-Phosphorylation of Recombinant Human NF-kappaB-Inducing Kinase (NIK/MAP3K14) Activity (AlphaScreen®)
NIK/MAP3K14 auto-phosphorylation activity was measured using the AlphaScreen® (αscreen) format (Perkin Elmer). All compounds tested were dissolved in dimethyl sulfoxide (DMSO) and further dilutions were made in assay buffer. Final DMSO concentration was 1% (v/v) in assays. Assay buffer was 50 mM Tris pH 7.5 containing 1 mM EGTA (ethylene glycol tetraacetic acid), 1 mM DTT (dithiothreitol), 0.1 mM Na3VO4, 5 mM MgCl2, 0.01% Tween® 20. Assays were carried out in 384 well Alphaplates (Perkin Elmer). Incubations consisted of compound, 25 microM Adenosine-5′-triphosphate (ATP), and 0.2 nM NIK/MAP3K14. Incubations were initiated by addition of GST-tagged NIK/MAP3K14 enzyme, carried out for 1 h at 25° C. and terminated by addition of stop buffer containing anti-phospho-IKK Ser176/180 antibody. Protein A Acceptor and Glutathione-Donor beads were added before reading using an EnVision® Multilabel Plate Reader (Perkin Elmer). Signal obtained in the wells containing blank samples was subtracted from all other wells and IC50's were determined by fitting a sigmoidal curve to % inhibition of control versus Log10 compound concentration.

IC50: 4.6 nM
Structure (SMILES): CNC(=O)c1ccc(OC2CC2)c(Nc2nccc(-c3cc(C#N)c4c(c3)[C@@](C)(CO)CN4)n2)c1
